Reference: paper PMC8151276, “An Integrated Approach toward NanoBRET Tracers for Analysis of GPCR Ligand Engagement” (Molecules, 2021)

The chains behind the UniProt entries cited, without tags or fusion partners. Where a name states a change or a piece, a line headed by the entry shows the natural chain unless it says otherwise.
UniProt Q9GZQ6: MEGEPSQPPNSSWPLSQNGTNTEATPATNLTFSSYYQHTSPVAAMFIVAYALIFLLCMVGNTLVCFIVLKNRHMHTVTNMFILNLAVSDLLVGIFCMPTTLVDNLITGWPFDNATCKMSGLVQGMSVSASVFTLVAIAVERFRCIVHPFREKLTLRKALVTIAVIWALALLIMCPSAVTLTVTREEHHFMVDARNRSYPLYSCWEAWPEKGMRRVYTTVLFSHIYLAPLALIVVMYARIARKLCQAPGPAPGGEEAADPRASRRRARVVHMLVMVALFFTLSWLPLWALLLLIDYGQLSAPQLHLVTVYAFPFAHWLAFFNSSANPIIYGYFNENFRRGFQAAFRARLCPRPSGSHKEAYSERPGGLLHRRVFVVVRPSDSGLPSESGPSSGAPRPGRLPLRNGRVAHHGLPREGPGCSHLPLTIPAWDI
UniProt P08172, whole entry: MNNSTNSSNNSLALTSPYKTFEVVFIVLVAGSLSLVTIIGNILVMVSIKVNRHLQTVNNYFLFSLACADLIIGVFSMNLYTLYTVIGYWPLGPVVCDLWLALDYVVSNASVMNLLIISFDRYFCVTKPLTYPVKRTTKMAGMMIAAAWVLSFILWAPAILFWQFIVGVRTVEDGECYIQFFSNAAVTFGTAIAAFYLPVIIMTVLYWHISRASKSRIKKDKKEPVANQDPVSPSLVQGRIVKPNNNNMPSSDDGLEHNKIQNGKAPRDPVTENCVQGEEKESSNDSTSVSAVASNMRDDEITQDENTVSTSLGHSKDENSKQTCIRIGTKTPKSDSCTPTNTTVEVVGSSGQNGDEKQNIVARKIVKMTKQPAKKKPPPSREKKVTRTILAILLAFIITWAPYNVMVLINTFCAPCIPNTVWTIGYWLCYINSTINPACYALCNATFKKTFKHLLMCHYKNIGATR
UniProt P25100, whole entry: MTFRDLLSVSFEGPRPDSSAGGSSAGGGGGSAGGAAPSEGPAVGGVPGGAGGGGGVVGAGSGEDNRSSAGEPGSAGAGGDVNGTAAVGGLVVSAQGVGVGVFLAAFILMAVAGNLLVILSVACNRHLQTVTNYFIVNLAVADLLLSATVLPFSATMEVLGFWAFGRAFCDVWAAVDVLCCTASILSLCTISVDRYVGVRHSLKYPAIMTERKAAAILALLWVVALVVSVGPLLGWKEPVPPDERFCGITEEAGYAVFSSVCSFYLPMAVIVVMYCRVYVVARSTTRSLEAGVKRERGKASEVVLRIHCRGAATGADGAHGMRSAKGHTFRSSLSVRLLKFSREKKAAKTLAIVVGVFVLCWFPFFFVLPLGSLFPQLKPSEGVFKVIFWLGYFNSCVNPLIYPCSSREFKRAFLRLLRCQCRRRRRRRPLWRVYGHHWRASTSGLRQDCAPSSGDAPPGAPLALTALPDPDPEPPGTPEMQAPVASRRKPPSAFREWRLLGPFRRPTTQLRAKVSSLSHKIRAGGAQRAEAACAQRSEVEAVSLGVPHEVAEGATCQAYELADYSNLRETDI

Legend:
Assay type in all cases: binding
P2RY8 = target: T1, P2RY8 (Homo sapiens, UniProt Q86VZ1); assay: NanoBRET screen HiBiT-P2RY8 in HEK293; settings: tracer 0.1μM
T1 construct: purchased Promega (in-house HiBiT-GPCR construct library, NanoBRET)
Description: (§1) Each tracer candidate was screened across the entire library of HiBiT-GPCR constructs using NanoBRET as the detection modality. As depicted in Figure 4A, the specificity of interactions was evaluated through decrease in BRET due to competitive displacement of a bound tracer by excess parental compound. Each tracer was analyzed for binding to each HiBiT-GPCR fusion in the absence and in the presence of competing parental compound. Briefly, HEK293 cells were transfected with HiBiT-GPCR constructs diluted into promoterless DNA to reduce expression and maximize translocation to the cell surface. Each tracer candidate was then screened at concentrations of 1 μM and 0.1 μM across cells expressing these fusions. Cells were treated for 1.5 h with tracer either alone or in the presence of 20 μM competing parental compound (i.e., control). BRET was measured upon addition of purified LgBiT and subsequent complementation with HiBiT genetically fused to a GPCR. The specificity of interactions was assessed through a decrease in BRET signal due to competitive displacement of the bound tracer. To further gauge the robustness of these interactions, the fold response over the control (i.e., BRETtracer/BRETcontrol) was calculated. We chose a 1.5-fold response, which translates to ≥7-fold signal over noise as the minimal threshold required to score an interaction as positive. […]. […]

NPFFR1 = target: T2, NPFFR1 (Homo sapiens, UniProt Q9GZQ6); assay: NanoBRET screen HiBiT-NPFFR1 in HEK293; settings: NPFFR1; tracer 1μM
T2 construct: purchased Promega (in-house HiBiT-GPCR construct library, NanoBRET)
Description: Each tracer candidate was screened across the entire library of HiBiT-GPCR constructs using NanoBRET as the detection modality. As depicted in Figure 4A, the specificity of interactions was evaluated through decrease in BRET due to competitive displacement of a bound tracer by excess parental compound. Each tracer was analyzed for binding to each HiBiT-GPCR fusion in the absence and in the presence of competing parental compound. Briefly, HEK293 cells were transfected with HiBiT-GPCR constructs diluted into promoterless DNA to reduce expression and maximize translocation to the cell surface. Each tracer candidate was then screened at concentrations of 1 μM and 0.1 μM across cells expressing these fusions. Cells were treated for 1.5 h with tracer either alone or in the presence of 20 μM competing parental compound (i.e., control). BRET was measured upon addition of purified LgBiT and subsequent complementation with HiBiT genetically fused to a GPCR. The specificity of interactions was assessed through a decrease in BRET signal due to competitive displacement of the bound tracer. To further gauge the robustness of these interactions, the fold response over the control (i.e., BRETtracer/BRETcontrol) was calculated. We chose a 1.5-fold response, which translates to ≥7-fold signal over noise as the minimal threshold required to score an interaction as positive. […]. Below we highlight the screening results obtained for our exemplary fluorescent tracers based on Clozapine, Amitriptyline and AZD1283.
HiBiT-GPCR DNA constructs were diluted in 10 mM Tris pH 8 to a final concentration of 0.01 μg/μL, arrayed in 96-well plates and stored at −20 °C. For transfection, HEK293 cells were suspended in Opti-MEM (without phenol red) supplemented with 2% fetal bovine serum (Seradigm) and 100 units/mL penicillin–streptomycin (Gibco) at a final concentration of 220,000 cells/mL and dispensed into white 96-well plates at 90 μL/well. Subsequent transfections and screens were carried using an Agilent Bravo Automated Liquid Handling Platform. First, the 96-well HiBiT DNA arrays were diluted 25-fold in Opti-MEM (without serum or phenol red) to a final concentration of 0.0004 μg/μL and 20 μL of the diluted DNAs were transferred into new 96-well plates. Next, promoterless carrier DNA (1 μg/μL) was diluted 25-fold (0.04 μg/μL) and then dispensed into the diluted arrays at 20 μL/well. Following brief mixing, Viafect transfection reagent (Promega) diluted 16-fold into Opti-MEM was dispensed into the plates at 40 μL/well. After mixing by pipetting, plates were incubated for 10 min on the pipetting station deck. The DNA-transfection reagent complexes were then added to plates containing cells. To facilitate the screen, 10 μL of DNA-transfection reagent complexes were added in duplicates to the top 4 and bottom 4 rows, resulting in two identical 48-well arrays per plate. Plates with transfected cells were incubated for 18–20 h at 37 °C/5% CO2. A screen of each tracer across the entire library using two different concentrations requires duplicate plates of transfected cells. Depending on the number of tracers being screened, transfections can be scaled up using the same ratios. The next day, for each tracer, four 20× screening solutions in tracer dilution buffer (Promega) were prepared: two duplicates at final concentration of 20 μM and two duplicates at a final concentration of 2 μM. A competing unmodified compound was added to one of each duplicate at a final concentration of 400 μM. […]

CHRM2 = target: T3, CHRM2 (Homo sapiens, UniProt P08172); assay: NanoBRET screen HiBiT-CHRM2 in HEK293; settings: tracer 0.1μM
T3 construct: purchased Promega (in-house HiBiT-GPCR construct library, NanoBRET)
Description: as §1

ADRA1D = target: T4, ADRA1D (Homo sapiens, UniProt P25100); assay: NanoBRET screen HiBiT-ADRA1D in HEK293; settings: tracer 0.1μM
T4 construct: purchased Promega (in-house HiBiT-GPCR construct library, NanoBRET)
Description: Each tracer candidate was screened across the entire library of HiBiT-GPCR constructs using NanoBRET as the detection modality. As depicted in Figure 4A, the specificity of interactions was evaluated through decrease in BRET due to competitive displacement of a bound tracer by excess parental compound. Each tracer was analyzed for binding to each HiBiT-GPCR fusion in the absence and in the presence of competing parental compound. Briefly, HEK293 cells were transfected with HiBiT-GPCR constructs diluted into promoterless DNA to reduce expression and maximize translocation to the cell surface. Each tracer candidate was then screened at concentrations of 1 μM and 0.1 μM across cells expressing these fusions. Cells were treated for 1.5 h with tracer either alone or in the presence of 20 μM competing parental compound (i.e., control). BRET was measured upon addition of purified LgBiT and subsequent complementation with HiBiT genetically fused to a GPCR. The specificity of interactions was assessed through a decrease in BRET signal due to competitive displacement of the bound tracer. To further gauge the robustness of these interactions, the fold response over the control (i.e., BRETtracer/BRETcontrol) was calculated. We chose a 1.5-fold response, which translates to ≥7-fold signal over noise as the minimal threshold required to score an interaction as positive.
HiBiT-GPCR DNA constructs were diluted in 10 mM Tris pH 8 to a final concentration of 0.01 μg/μL, arrayed in 96-well plates and stored at −20 °C. For transfection, HEK293 cells were suspended in Opti-MEM (without phenol red) supplemented with 2% fetal bovine serum (Seradigm) and 100 units/mL penicillin–streptomycin (Gibco) at a final concentration of 220,000 cells/mL and dispensed into white 96-well plates at 90 μL/well. Subsequent transfections and screens were carried using an Agilent Bravo Automated Liquid Handling Platform. […]

Measured: NanoBRET Fold Response

Cc1cc2c(s1)Nc1ccccc1N=C2N1CCN(CCCNC(=O)CCOCCOCCOCCOCCNC(=O)CCc2ccc3n2[B-](F)(F)[N+]2=C(c4ccc[nH]4)C=CC2=C3)CC1 [Olanzapine-a-2-NB590]
1.03: P2RY8 | NPFFR1 | CHRM2 | ADRA1D
